Assays:
[1] = tested on: human MSTO-211H mesothelioma xenograft; test: MSTO-211H xenograft study 091 (Example 31); type: in vivo; details: 30 mg/kg IV Q4D × 4
Sprague-Dawley rats [2] = test: Rat toxicity study e371 single dose; details: ethanol, Cremophor EL and D5W (10:10:80)
Sprague-Dawley rats [3] = test: Rat toxicity study e371 multiple dose; details: weekly, ethanol, Cremophor EL and D5W (10:10:80)
[4] = tested on: human HT29 colon carcinoma xenografts; test: HT29 xenograft study e138 (Example 22); details: 30 mg/kg IV Q4D × 4

Row | Compound | toxicity [1] | axonal degeneration vs docetaxel (Sprague-Dawley rats [2]) | rat toxicity score vs docetaxel (Sprague-Dawley rats [2]) | axonal degeneration vs docetaxel (Sprague-Dawley rats [3]) | Max. BW Loss %; Day [4] | Number of Death NTR ([4]; N=6) | Number of Death TR ([4]; N=6)
1 | CCC(=O)O[C@H]1C(=O)[C@@]2(C)C([C@H](OC(=O)c3ccccc3)[C@]3(O)C[C@H](OC(=O)[C@H](O)[C@@H](NC(=O)OC4CCCC4)c4cccs4)C(C)=C1C3(C)C)[C@]1(OC(C)=O)CO[C@@H]1C[C@@H]2O (stereo partly drawn) [Compound 18926] | toxic at this dose | less axonal degeneration than docetaxel | higher (safer) rat toxicity score | less axonal degeneration than docetaxel |  |  | 
2 | CCC(=O)O[C@H]1C(=O)[C@@]2(C)C([C@H](OC(=O)c3ccccc3)[C@]3(O)C[C@H](OC(=O)[C@H](O)[C@@H](NC(=O)OC4CCC4)c4cccs4)C(C)=C1C3(C)C)[C@]1(OC(C)=O)CO[C@@H]1C[C@@H]2O (stereo partly drawn) [Compound 19244] |  | less axonal degeneration than docetaxel | higher (safer) rat toxicity score |  | −10.5%; Day 14 | 0 | 0
3 | CC(=O)O[C@@]12CO[C@@H]1C[C@H](O)[C@@]1(C)C(=O)[C@H](OC(=O)C3CC3)C3=C(C)[C@@H](OC(=O)[C@H](O)[C@@H](NC(=O)OC4CCC4)c4cccs4)C[C@@](O)([C@@H](OC(=O)c4ccccc4)C12)C3(C)C (stereo partly drawn) [Compound 18365] |  | less axonal degeneration than docetaxel | higher (safer) rat toxicity score | less axonal degeneration than docetaxel |  |  | 
